The nature of this series: Congo red staining with light, polarized light and fluorescence microscopy. The series is classed as physicochemical. Here is the method: A few drops of the resulting activated turbid oligopeptide solution were transferred to a polylysine-coated slide and the protein solution was dried under airflow in an extractor hood. The dried protein was stained with saturated Congo red solution (in 80% ethanol and 2 M NaCl) and washed with 80% ethanol. As reference proteins and peptides, solutions of soluble, non incubated PAP(248-286) and human albumine in similar concentrations were transferred to the same slides and stained equally. […] The same slides stained with Congo red were examined by light and fluorescence microscopy. […] Staining with Congo Red and birefringence are typical criteria for fibril formation (Nilsson; 2004). In addition, by conventional fluorescence microscopy remarkable differences in colour and intensity of the SEVI fibrils (lucent orange, FIG. 6A) could be observed, in contrast to the soluble, non-activated PAP(248-286) (black, FIG. 6B) or albumine (green, FIG. 6C).
FIG. 4. Activated SEVI peptides are stainable with Congo red which is indicative for fibril formation. Upper and lower slide: a solution of activated precipitated SEVI peptides (A), non-activated, soluble SEVI (B) and albumine (C) were transferred to poly-lysine-coated slides and stained by Congo red.
FIG. 5. Activated SEVI peptides show the typical birefringence effect (double refraction) of fibrils using polarized light in light microscopy. The same Congo red-stained slides shown in FIG. 4 were used for microscopy: The solution of activated precipitated SEVI peptides (A), non-activated, soluble SEVI (B) and albumine (C).
FIG. 6. Activated SEVI peptides show remarkably differences in color and intensity using fluorescence microscopy. The same Congo Red-stained slides shown in FIG. 4 were used for microscopy: The solution of activated precipitated SEVI peptides (A), non-activated, soluble SEVI (B) and albumine (C).

As for “albumine: human albumine used as reference protein in Congo red staining”, for the setting “Congo red stained slides”, the “birefringence in light microscopy using polarized light” value was “did not show a birefringence effect” and the “colour in conventional fluorescence microscopy” value is reported as “green”. Also, the “Congo Red staining” value (dried on polylysine-coated slide, saturated Congo red solution) was “blue coloration”.

The values are drawn from patent US8299031B2, “Human semen enhancer of viral infection peptides (SEVI) and their use” (Viro Pharmaceuticals GmbH & Co. KG, priority 2006, dated 2012).
